## Binding of CDR-mutated scFvs to a peptide of the spike HR2 region

Source: Li et al. 2023 (doi:10.1038/s41467-023-39022-2), MIT Lincoln Laboratory and A-Alpha Bio; data file from the FLAb repository.

The target is the same throughout: PDVDLGDISGINAS, from the HR2 region of SARS-CoV-2 spike.

Ab-14 is the parent antibody, in scFv form: VH, then a 15-residue (Gly4Ser)3 linker, then VL. The heavy chain is unchanged in all variants.
VH: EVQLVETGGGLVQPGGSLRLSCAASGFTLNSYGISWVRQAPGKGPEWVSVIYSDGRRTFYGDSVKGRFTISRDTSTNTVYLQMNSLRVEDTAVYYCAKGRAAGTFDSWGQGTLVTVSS
VL: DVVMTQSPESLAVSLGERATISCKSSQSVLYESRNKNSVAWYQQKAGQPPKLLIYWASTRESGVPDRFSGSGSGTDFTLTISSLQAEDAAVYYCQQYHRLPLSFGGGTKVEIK

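These sequences belong to a second round, designed from the earlier measurements on random variants of the parent. Group labels follow the data file (En: ensemble of fine-tuned language models; GP: Gaussian process model; HC: hill climbing; Gen: genetic algorithm; Gibbs: Gibbs sampling; a sequence that several methods proposed may carry one label only). AlphaSeq pools MATa yeast showing the antibodies with MATalpha yeast showing the peptide. The frequency of each diploid, read from paired DNA barcodes, reflects how well the two displayed proteins bind. Each replicate has its own calibration line, from reference interactions of the BCL2 family. Mating was done six times.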

The parent's light chain CDRs are KSSQSVLYESRNKNSVA, WASTRES, QQYHRLPLS; each variant's own CDRs replace them letter for letter. Variants here have more than six changes. Scale: log10 of Kd in nM, estimated from mating counts; low values are strong binders. A mean of the replicates is given; it leaves out those without a signal. "nd" means that the variant was in the library but no mating with the target was seen in any replicate; the authors take this as a sign of poor binding, and no number exists. The list is sorted by this average, lowest first, undetected variants last. As a blank, each scFv also met three strains without target: over all light chain designs, 4% of these pairings were detected, typically at 2.64 and seldom below 1.59. Also given: how often the same scFv was detected with the empty control strains. A sequence measured in both rounds can read differently, since the two assays cover different ranges. In the paper, a design with two or fewer of six values counts as a poor binder.

With KVSQSNGYESRMFNSVA / NASQRES / QQYHRLPLS [GP_Gibbs] the result was -0.24 (6 of 6 replicates; controls 0 of 18). The variant KLSGSMLYEERNWNSVA / HASHRES / QQYHRLPLS [GP_Gibbs] showed -0.11 (6 of 6 replicates; controls 2 of 18). The variant ALSQSMDMTSRNVNSVA / DLSTREN / QQYHRLPLS [En_HC] showed -0.09 (6 of 6 replicates; controls 1 of 18). The variant KLSMEHDYESRNKNSVA / QASQREW / QQYHRLPLS [GP_Gibbs] showed -0.08 (6 of 6 replicates; controls 0 of 18). With FMSQSVLMEGRNDNSVA / DASTRED / QQYHRLPLS [GP_Gibbs] the result was -0.05 (6 of 6 replicates; controls 0 of 18). The variant KAQQSELYEDRNQNSVA / SASQRLS / QQYHRLPLS [GP_Gibbs] showed -0.04 (6 of 6 replicates; controls 0 of 18). The variant HMSDSIEKMASHARNIA / DETTTAM / QQYYRLPLS [En_Gibbs] showed 0.10 (6 of 6 replicates; controls 0 of 18). The variant KFFQSQLYEQRNQNSVA / SASTRLD / QQYHRLPLS [GP_Gibbs] showed 0.12 (6 of 6 replicates; controls 1 of 18). For MVNGIMDHLSKNSNNVA / ETTERNS / QQYDRLPLS [En_Gen], the assay gave 0.15 (6 of 6 replicates; controls 0 of 18).

For KIWGSYLGESRNWNAVA / NASQREQ / QQYHRLPLS [GP_Gibbs], the assay gave 0.18 (6 of 6 replicates; controls 1 of 18). With KWSKMVMEGSRNKNSVA / EASQREE / QQYHRLPLS [GP_Gibbs] the result was 0.22 (6 of 6 replicates; controls 0 of 18). The variant TISQLMMYESRNKNNVA / GTSTREN / QCYHRLPLS [En_HC] showed 0.26 (6 of 6 replicates; controls 0 of 18). The variant HLSINMPGQHYMYDSVA / HSERRAE / QQYYRLPLG [En_Gibbs] gave 0.31 (6 of 6 replicates; controls 0 of 18). The variant KIGGVTNGISRIKNSVA / EQSTRED / QQYNRLPLS [En_HC] gave 0.31 (6 of 6 replicates; controls 0 of 18). With MVTQMAMTGMTNKRSVA / NAETRES / QQYHRLPLI [En_Gen] the result was 0.33 (6 of 6 replicates; controls 0 of 18). The variant KIQGYLNKESKNKNSVA / EMVNRES / QQYDRLPLS [En_HC] showed 0.38 (6 of 6 replicates; controls 0 of 18). The variant KLPNSQLYESRNKNQVA / SASTREM / QQYHRLPLS [GP_Gibbs] gave 0.43 (6 of 6 replicates; controls 2 of 18). The variant KFSQMANSMSVSHSAVA / EMSTRES / QQYNRLPLA [En_Gen] gave 0.47 (6 of 6 replicates; controls 1 of 18).

The variant IIEQGEYEQEQHQNAIA / DGETRMR / QQYYKLPLV [En_Gibbs] showed 0.56 (6 of 6 replicates; controls 0 of 18). The variant KLLQVTTEHGAALNNIA / EGARRND / QQYARLPLV [En_Gibbs] showed 0.59 (6 of 6 replicates; controls 1 of 18). With KISQMSTIESIIHNSVA / QTSTREK / QQYDRLPLS [En_HC] the result was 0.62 (6 of 6 replicates; controls 2 of 18). With KLRQSTAYLMENKNSVA / ELTTRGN / QQYFRLPLS [En_HC] the result was 0.73 (6 of 6 replicates; controls 0 of 18). The variant SVTRYTDENGLKMQSIA / GAGNRMT / QQYHRLPLT [En_Gibbs] showed 0.73 (6 of 6 replicates; controls 0 of 18). For KVSEMTAFLSSNRNNVA / DNSTRGS / QQYHRLPLS [En_HC], the assay gave 0.74 (6 of 6 replicates; controls 2 of 18). The variant IISQSVMFEQTLINSVA / NAQTREE / QQYHRLPLS [En_HC] gave 0.87 (6 of 6 replicates; controls 0 of 18). The variant TISQSWMIESRNKNNVA / EMSTREN / QDYDRLPLS [En_HC] showed 0.96 (6 of 6 replicates; controls 1 of 18). The variant MISQLYNMGSFAINSVA / QASQRCE / QQYDRLPLM [En_Gen] gave 1.05 (6 of 6 replicates; controls 0 of 18).

For MFDQHTMNEMDKNNAVA / EVTHLVN / QQYAQLPLI [En_Gibbs], the assay gave 1.08 (6 of 6 replicates; controls 1 of 18). The variant MMGMTVENQSNMIQNVA / DMNERFA / QQYFQLPLS [En_Gibbs] gave 1.11 (6 of 6 replicates; controls 1 of 18). With KISGYLQKESKNKNSVA / EMVNRES / QQYDRLPLS [En_HC] the result was 1.15 (6 of 6 replicates; controls 1 of 18). The variant LLQQDFYNERNQANAVA / DGNQLAN / QDYARLPLV [En_Gibbs] gave 1.22 (6 of 6 replicates; controls 0 of 18). With KLSEIAHFESRKKNSVA / ENSTRES / QQYDHLPLS [En_HC] the result was 1.32 (6 of 6 replicates; controls 1 of 18). For TISQMTSLFSQSINNVA / EVSMRES / QQYDRLPLS [En_Gen], the assay gave 1.39 (6 of 6 replicates; controls 1 of 18). The variant KISEQMNFAQFNKQSIA / EVSTRSK / QSYNRLPLS [En_Gen] gave 1.39 (6 of 6 replicates; controls 1 of 18). For KSSPSQLYEDRMDNSVA / NASYRES / QQYHRLPLS [GP_Gibbs], the assay gave 1.64 (3 of 6 replicates; controls 0 of 18). For SMMFDTSDNYHERNNIA / DQAAIMA / QQYSILPLS [En_Gibbs], the assay gave 1.81 (2 of 6 replicates; controls 0 of 18).

The variant MLSQMWAIGMKVSNSVA / QASMRFN / QQYDRLPLI [En_Gen] showed 2.22 (5 of 6 replicates; controls 1 of 18). For MITAMLRGVGRDKNSVA / NAQTREK / QHYNRLPLS [En_HC], the assay gave 2.42 (6 of 6 replicates; controls 2 of 18). With HIYQSVGMTSRNKNSVA / ENSTRED / QQYDRLPLS [En_HC] the result was nd (0 of 6 replicates; controls 0 of 18).

Extract of 5 entries:

| CDR-L1 | CDR-L2 | CDR-L3 | group | mean log10 Kd (nM) | replicates with signal | signal with controls |
|---|---|---|---|---|---|---|
| SVTRYTDENGLKMQSIA | GAGNRMT | QQYHRLPLT | En_Gibbs | 0.73 | 6 of 6 | 0 of 18 |
| TISQLMMYESRNKNNVA | GTSTREN | QCYHRLPLS | En_HC | 0.26 | 6 of 6 | 0 of 18 |
| KIWGSYLGESRNWNAVA | NASQREQ | QQYHRLPLS | GP_Gibbs | 0.18 | 6 of 6 | 1 of 18 |
| TISQSWMIESRNKNNVA | EMSTREN | QDYDRLPLS | En_HC | 0.96 | 6 of 6 | 1 of 18 |
| KSSPSQLYEDRMDNSVA | NASYRES | QQYHRLPLS | GP_Gibbs | 1.64 | 3 of 6 | 0 of 18 |